Assay results: PubChem BioAssay AID1766 (National Center for Advancing Translational Sciences (NCATS), 2009)
The entries are a selection whose mix differs from that of the whole data set. Some results for these compounds are left out of this collection, so the calls shown say nothing about other tests. Records with an inconclusive call do not appear. Active and inactive are the calls of the source. Calls come from the whole dose curve; as a rule, active = well fitted curve in the direction sought with a large enough effect in the polarisation (not every such curve was filed as active); inconclusive = small, poorly fitted or top-dose-only effect, or effect the other way, or a change in a side signal; inactive = no such curve, though single readings can be large or run the other way; the % refers to the polarisation.

Assay: qHTS Assay for Inhibitors Targeting the Menin-MLL Interaction in MLL Related Leukemias: Competition With Fluorescein Labeled MLL-derived Peptide; note: % of control where 0% means no effect
Settings: Fluorescence polarization, fluorescein-MLL peptide displacement from menin; at 61.4 µM (top of the series)

SMILES	FP activity change
CN(C)c1cccc(C(=O)NCC2(N(C)C)CCCCC2)c1	inactive: -0.195%
CC(C)Oc1ccc(C(=O)NCC2(N(C)C)CCCCC2)cc1	inactive: -6.33%
O=C(OC1CN2CCC1CC2)C(CO)(c1ccccc1)c1ccccc1 (centres undefined)	inactive: 1.89%
O=C(NCC1(N2CCCCC2)CCCCC1)c1cccc(Cl)c1	inactive: 3.39%
COc1cccc(C(=O)NCC2(N3CCCCC3)CCCCC2)c1	inactive: 6.03%
COc1ccc(Cl)cc1C(=O)NCC1(N(C)C)CCCCC1	inactive: 3.13%
COc1cc(C(=O)NCC2(N(C)C)CCCCC2)c([N+](=O)[O-])cc1OC	inactive: 3.74%
CN(C)C1(CNC(=O)c2ccc(Br)cc2)CCCCC1	inactive: 0.222%
Cc1cc(C(=O)NCC2(N3CCCCC3)CCCCC2)ccc1[N+](=O)[O-]	inactive: 1.21%
CCN1CCCC(OC(=O)C2(O)c3ccccc3C=Cc3ccccc32)C1 (centres undefined)	inactive: 0.687%
O=C(NCC1(N2CCCCC2)CCCCC1)c1cccc(Br)c1	inactive: -2.8%
COc1ccc(C(=O)NCC2(N(C)C)CCCCC2)cc1	inactive: -11.4%
C=CCN1CCN(CCOC(=O)C(O)(c2ccccc2)c2ccccc2)CC1	inactive: 0.87%
O=C(NCC1(N2CCCCC2)CCCCC1)c1cc(F)c(F)cc1Cl	inactive: -2.97%
CN1CCCC(OC(=O)C(O)(c2ccccc2)c2ccccc2)C1 (centres undefined)	inactive: -0.0326%
Cc1ccccc1C(=O)NCC1(N2CCCCC2)CCCCC1	inactive: 7.58%
CN(C)C1CCCC1OC(=O)C(O)(c1ccccc1)c1ccccc1 (centres undefined)	inactive: -1.53%
CN(C)c1ccc(C(=O)NCC2(N(C)C)CCCCC2)cc1	inactive: -1.16%
Cc1ccc(C(=O)NCC2(N3CCCCC3)CCCCC2)cc1	inactive: 2.55%
CC(C)N1C(=O)CC2(CCN(CCOC(=O)C(O)(c3ccccc3)c3ccccc3)CC2)C1=O	inactive: -0.53%
CCN(CC)CC(C)C(C)OC(=O)C(O)(c1ccccc1)c1ccccc1 (centres undefined)	inactive: -1.69%
COc1cc(SC)ccc1C(=O)NCC1(N(C)C)CCCCC1	inactive: 11.2%
CN1[C@@H]2CC[C@H]1CC(OC(=O)C(O)(c1ccccc1)c1ccccc1)C2 (some centres undefined)	inactive: -7.43%
O=C(NCC1(N2CCCCC2)CCCCC1)c1cc([N+](=O)[O-])ccc1Cl	inactive: 13.4%
